Consider one molecule from article PMC4841536, “Characterization of the Anti-HCV Activities of the New Cyclophilin Inhibitor STG-175” (PLoS ONE, 2016).

Sequences of proteins named here, by UniProt entry; tags and fusion partners are left off.
UniProt P62937, whole entry: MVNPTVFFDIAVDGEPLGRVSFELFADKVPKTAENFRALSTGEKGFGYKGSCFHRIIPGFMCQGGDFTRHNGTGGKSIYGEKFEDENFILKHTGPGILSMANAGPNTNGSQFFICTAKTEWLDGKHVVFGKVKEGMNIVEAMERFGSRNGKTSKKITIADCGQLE

The target of the test is T1, Human recombinant CypA (Homo sapiens, UniProt P62937).
T1 construct: purchased Atgen
Briefly: α-chymotrypsin-coupled PPIase assay, CypA isomerase activity. The following applies: 5°C, 10 concentrations 0.05–1000 nM; read-out: IC50, neutralization of the isomerase activity of CypA. In kind it is biochemical. On the procedure:
Inhibition of CypA and CypD isomerase activities were quantified using a α-chymotrypsin-coupled assay adapted to a 96-well plate format. Human recombinant CypA or CypD (Atgen) was dissolved to 10 nM in PPIases buffer (50 mM Hepes, 100 mM NaCl, 1 mg/ml bovine serum albumin, 1 mg/ml α-chymotrypsin; pH 8). Succinyl-AAPF-pNA peptide substrate (Sigma) was dissolved to 3.2 mM in LiCl/trifluoroethanol. Each CypI was prepared at 10 concentrations in DMSO, then diluted into CypA/D PPIase buffer to 0.05–1000 nM. Incubations were performed at 5°C. Ninety five μL of reaction mix was added to 5 μL peptide in 96-wells and OD405 nm measured at 6-sec intervals for 6 min using a Biotek Synergy H4 plate reader. Data were fitted with Graphpad Prism 6.0 to acquire first-order rate constants, which were calculated by subtracting the rate constant from uncatalyzed reactions (no CypA/D). […]
The inhibition of the isomerase activities of CypA and CypD were measured with 10 increasing concentrations of STG-175 to quantify IC50 values.
Fig 1 Anti-PPIase and immunosuppressive activities of STG-175. […] Inhibition of CypA (B) and CypD (C) isomerase activities were assessed using the α-chymotrypsin-coupled assay. […] D. IL-2 promoter activation upon T-cell stimulation was determined using an engineered Jurkat T-cell line, which expresses betagalactosidase. […] The Y-axis values are expressed as percentage of activity. […]

On to `C/C=C/C[C@@H](C)[C@@H](O)[C@H]1C(=O)N[C@@H](CC)C(=O)N(C)[C@H](SCCN(C)C)C(=O)N(C)[C@@H](CC(C)(C)O)C(=O)N[C@@H](C(C)C)C(=O)N(C)[C@@H](CC(C)C)C(=O)N[C@@H](C)C(=O)N[C@H](C)C(=O)N(C)[C@@H](CC(C)C)C(=O)N(C)[C@@H](CC(C)C)C(=O)N(C)[C@@H](C(C)C)C(=O)N1C` [SCY-635], for which the IC50 (commonly the concentration at which inhibition is half-maximal) came out at 4.8 nM.
